# Data published in PubChem BioAssay AID524 (The Scripps Research Institute Molecular Screening Center, 2006).
# The entries are a selection whose mix differs from that of the whole data set. The source made the active and inactive calls.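 Rule for the calls: active = inhibition above the screen-wide mean inhibition plus 3 SD (cut at about 21% in these data); inactive = the rest.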
# Molecular target: cAMP-dependent protein kinase catalytic subunit alpha (Homo sapiens) (UniProt P17612)
# Assay: inhibitors of human PKA kinase activity, primary screen, biochemical, ATP-depletion luminescence, Kemptide substrate (AID 524)
# Conditions: PKA Kemptide phosphorylation, Kinase-Glo ATP luminescence; at 6 µM; stronger effect = higher value
row,SMILES,inhibition
1,Cc1ccccc1NP(C)(=O)Nc1ccccc1C,inactive: 12.1%
2,CP(=O)(Nc1ccc2c(c1)OCCO2)Oc1ccccc1 (stereo not drawn),inactive: 6.2%
3,CCOP(C)(=S)SCC(=O)NC(C)(CC)C(=O)O (stereo not drawn),inactive: 0.3%
4,CN(C)CCOC(=O)C(O)(c1ccccc1)C1CCCCC1 (stereo not drawn),inactive: -9.6%
5,CP(=O)(Nc1ccccc1F)Oc1ccccc1 (stereo not drawn),inactive: 14.6%
6,CP(=O)(Nc1ccccn1)Oc1ccccc1 (stereo not drawn),inactive: 4.3%
7,Cc1nc2ccc3ccccc3c2o1.O=[N+]([O-])c1cc([N+](=O)[O-])c(O)c([N+](=O)[O-])c1,inactive: -1%
8,COc1ccccc1OP(C)(=O)Nc1ccc(C)c(C)c1 (stereo not drawn),inactive: 9.8%
9,CP(=O)(Oc1ccccc1)N1CCOC1=O (stereo not drawn),inactive: 6.3%
10,COc1ccccc1OP(C)(=O)Nc1c(C)n(C)n(-c2ccccc2)c1=O (stereo not drawn),inactive: 9.9%
11,CCN(CC)CC(O)COC(=O)C(O)(c1ccccc1)C1CCCCC1 (stereo not drawn),inactive: 6.4%
12,CCOP(C)(=S)SCC(=O)NC(C)C(=O)O (stereo not drawn),inactive: 5.5%
13,CP(=O)(NC(=O)Nc1ccccc1)Oc1ccccc1 (stereo not drawn),inactive: -2.9%
14,CP(=S)(Nn1cnnc1)Oc1ccccc1 (stereo not drawn),inactive: 4.8%
15,COc1ccccc1OP(C)(=O)Nc1ccc(C)cc1 (stereo not drawn),inactive: 2%
16,Cc1ccc(NP(C)(=O)Oc2ccccc2)c(C)c1 (stereo not drawn),inactive: 8.1%
17,Cc1ccc(C)c(NP(C)(=O)Oc2ccccc2)c1 (stereo not drawn),inactive: 6.4%
18,Cc1nc2ccc3ccccc3c2s1.O=[N+]([O-])c1cc([N+](=O)[O-])c(O)c([N+](=O)[O-])c1,inactive: 5.3%
